These results are taken from patent publication US20020192736A1, “Assay of peroxidase activity” (Pierce Chemical Company, priority 2001, published 2002).

Sequences of proteins named here, by UniProt entry; tags and fusion partners are left off. Residues count along the entry.
UniProt P00433, 31-338 limits assumed: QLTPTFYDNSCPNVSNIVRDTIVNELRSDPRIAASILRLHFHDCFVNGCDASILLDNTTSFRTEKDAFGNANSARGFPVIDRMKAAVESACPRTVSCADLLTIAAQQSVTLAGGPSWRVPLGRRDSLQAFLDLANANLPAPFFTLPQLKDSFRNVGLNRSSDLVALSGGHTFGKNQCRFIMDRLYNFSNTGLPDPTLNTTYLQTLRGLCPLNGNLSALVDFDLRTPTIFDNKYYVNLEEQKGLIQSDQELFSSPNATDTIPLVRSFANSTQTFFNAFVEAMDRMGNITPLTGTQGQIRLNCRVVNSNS

This test addresses horseradish peroxidase labeled streptavidin (SA-HRP) (Armoracia rusticana, UniProt P00433). Kind of test: Dot blot assay on nitrocellulose membrane, film densitometry (relative intensity). It is filed as biochemical.

Several values for one entry are separate records, joined by “and”; a condition that tells them apart may be missing. Equal entries are not always repeated.

On to “Sodium phenothiazine 10-yl propane sulfonate [Azine Enhancer 1c]”, for which the “Net Relative Intensity at 100 pg SA-HRP” value was 2,356,176 and 2,314,240; the “Net Relative Intensity at 1000 pg SA-HRP” value was 8,426,960 and 8,763,560.
